The record followed here is patent publication US4855316A (priority 1988, dated 1989).

Protein sequences, listed by entry. Tags and fused reporters are not part of them. Lines headed by an entry give the natural chain unless they say otherwise; changes in a name come on top. Residues count along the entry.
UniProt A0ACM8Q262, 1-400: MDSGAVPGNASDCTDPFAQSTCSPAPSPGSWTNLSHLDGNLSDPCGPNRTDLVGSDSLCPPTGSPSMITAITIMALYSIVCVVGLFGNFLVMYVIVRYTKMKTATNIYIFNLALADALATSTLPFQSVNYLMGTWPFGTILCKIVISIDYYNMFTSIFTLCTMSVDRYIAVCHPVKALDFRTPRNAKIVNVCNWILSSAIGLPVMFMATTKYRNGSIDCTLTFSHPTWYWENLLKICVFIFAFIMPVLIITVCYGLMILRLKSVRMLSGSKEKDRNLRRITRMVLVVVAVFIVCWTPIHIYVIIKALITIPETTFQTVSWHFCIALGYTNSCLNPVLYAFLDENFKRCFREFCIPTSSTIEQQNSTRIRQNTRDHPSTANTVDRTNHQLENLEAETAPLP
UniProt P41144: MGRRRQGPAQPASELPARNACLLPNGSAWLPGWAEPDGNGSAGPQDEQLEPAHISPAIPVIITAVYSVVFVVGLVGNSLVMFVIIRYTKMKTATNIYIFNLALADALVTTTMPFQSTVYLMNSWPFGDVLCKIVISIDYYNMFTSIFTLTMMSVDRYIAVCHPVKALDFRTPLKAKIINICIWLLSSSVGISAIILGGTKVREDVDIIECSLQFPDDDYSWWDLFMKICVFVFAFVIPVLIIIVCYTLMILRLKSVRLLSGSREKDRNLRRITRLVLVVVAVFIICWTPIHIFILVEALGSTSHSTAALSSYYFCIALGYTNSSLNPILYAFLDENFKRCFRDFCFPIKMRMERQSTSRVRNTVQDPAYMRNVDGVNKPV

Experiment [1] can be described thus: standard rat paw pressure analgesia test. The format is in vivo. To be noted: i.v. The text has this: The ED50 doses for several representative compounds of this invention in the standard rat paw pressure analgesia test are presented in Table 1.
The next experiment addresses mu opioid receptor (Cavia porcellus, UniProt A0ACM8Q262). Kind of experiment: mu opioid receptor binding: tritiated DAGO in guinea pig brain homogenates. To be noted: read-out: Opoid Binding Mu Ki; guinea pig brain homogenate, [3H]DAGO, 150 minutes, 0° C.
A further experiment deals with kappa opioid receptor (Cavia porcellus, UniProt P41144). Kind of experiment: kappa opioid binding: tritiated etorphine displacement in guinea pig brain homogenates (DADLE and DAGO added to saturate delta and mu sites). To be noted: read-out: Opoid Binding Kappa Ki; guinea pig brain homogenate, [3H]etorphine, 200 nanomolar DADLE and 200 nanomolar DAGO.

With `CO[C@H]1C[C@@H](N2CCCC2)[C@H](N(C)C(=O)Cc2cccc3occc23)C[C@H]1OC` (relative stereo), the “Rat Paw Pressure MPE50” value in experiment [1] was found to be 1.5 mg·kg. For the same molecule, the Ki on mu opioid receptor is 2800 nM; on kappa opioid receptor, 18 nM.

Turning to `CO[C@H]1C[C@@H](N2CCCC2)[C@H](N(C)C(=O)Cc2cccc3sccc23)C[C@H]1OC` (relative stereo), the “Rat Paw Pressure MPE50” value in experiment [1] was found to be 0.8 mg·kg. The Ki at mu opioid receptor is 820 nM; at kappa opioid receptor, 16 nM.

As for `CO[C@H]1C[C@@H](N2CCCC2)[C@H](N(C)C(=O)COc2cc(C)c(Cl)c(C)c2)C[C@H]1OC` (relative stereo) [Compound 3], the Ki on kappa opioid receptor was determined as 180 nM.

For `CO[C@H]1C[C@@H](N2CCCC2)[C@H](N(C)C(=O)COc2ccc(Cl)c(Cl)c2)C[C@H]1OC` (relative stereo) [Compound 4], the Ki at kappa opioid receptor came to 270 nM.

In the case of `CO[C@H]1C[C@@H](N2CCCC2)[C@H](N(C)C(=O)Cc2cccc3ccccc23)C[C@H]1OC` (relative stereo) [Compound 5], the Ki on mu opioid receptor was found to be 6600 nM; on kappa opioid receptor it was 39 nM.

For `CO[C@H]1C[C@@H](N2CCCC2)[C@H](N(C)C(=O)Cc2ccc(Cl)c(Cl)c2)C[C@H]1OC` (relative stereo) [Compound 6], the values for the Ki at mu opioid receptor and at kappa opioid receptor were 500 nM and 23 nM, respectively.

For the molecule `CO[C@H]1C[C@@H](N2CCCC2)[C@H](N(C)C(=O)CC2c3ccccc3-c3ccccc32)C[C@H]1OC` (relative stereo) [Compound 7], on kappa opioid receptor, the Ki was 8.7 nM.

With `CO[C@H]1C[C@@H](N2CCCC2)[C@H](N(C)C(=O)COc2cc(C)c(Cl)c(C)c2Cl)C[C@H]1OC` (relative stereo) [Compound 8], the Ki at kappa opioid receptor is 150 nM.

For the molecule `CO[C@H]1C[C@@H](N2CCCC2)[C@H](N(C)C(=O)COc2cccc(F)c2)C[C@H]1OC` (relative stereo) [Compound 9, N-[4,5-Dimethoxy-2-(1-pyrrolidinyl)cyclohexyl]-2-(3-fluorophenoxy)-N-methylacetamide], the Ki on kappa opioid receptor was 400 nM.

By Ki is commonly meant the equilibrium dissociation constant of an inhibitor or competing ligand from its target.
